B1: RAC-alpha serine/threonine-protein kinase (Homo sapiens), P31749 (parent)
chain: MSDVAIVKEGWLHKRGEYIKTWRPRYFLLKNDGTFIGYKERPQDVDQREAPLNNFSVAQCQLMKTERPRPNTFIIRCLQWTTVIERTFHVETPEEREEWTTAIQTVADGLKKQEEEEMDFRSGSPSDNSGAEEMEVSLAKPKHRVTMNEFEYLKLLGKGTFGKVILVKEKATGRYYAMKILKKEVIVAKDEVAHTLTENRVLQNSRHPFLTALKYSFQTHDRLCFVMEYANGGELFFHLSRERVFSEDRARFYGAEIVSALDYLHSEKNVVYRDLKLENLMLDKDGHIKITDFGLCKEGIKDGATMKTFCGTPEYLAPEVLEDNDYGRAVDWWGLGVVMYEMMCGRLPFYNQDHEKLFELILMEEIRFPRTLGPEAKSLLSGLLKKDPKQRLGGGSEDAKEIMQHRFFAGIVWQHVYEKKLSPPFKPQVTSETDTRYFDEEFTAQMITITPPDQDDSMECVDSERRPHFPQFSYSASGTA

Variants of: B1
Conditions: with hif1a_human HIF1A
In the case of E17K, the “effect of a mutation on the interaction” value is reported as “with no effect”.

Variants of: B1
Conditions: with h31_human H3C1
For E17K, the “effect of a mutation on the interaction” value was “with no effect”.

Variants of: B1
Conditions: with hlab_human HLA-B
With E17K the “effect of a mutation on the interaction” value was “with no effect”.

Variants of: B1
Conditions: with hnf1a_human HNF1A
With E17K the “effect of a mutation on the interaction” value was “with no effect”.

Variants of: B1
Conditions: with igf1r_human IGF1R
In the case of E17K, the “effect of a mutation on the interaction” value is reported as “with no effect”.

Variants of: B1
Conditions: with igf2_human IGF2, P01344
With E17K the “effect of a mutation on the interaction” value was “with no effect”.

Variants of: B1
Conditions: with il7ra_human IL7R
For E17K, the “effect of a mutation on the interaction” value was “with no effect”.

Variants of: B1
Conditions: with int12_human INTS12
For E17K, the “effect of a mutation on the interaction” value was “with no effect”.

Variants of: B1
Conditions: with irf6_human IRF6
For E17K, the “effect of a mutation on the interaction” value was “with no effect”.

Variants of: B1
Conditions: with jak1_human JAK1, P23458
For E17K, the “effect of a mutation on the interaction” value was “with no effect”.

Variants of: B1
Conditions: with jak3_human JAK3, P52333
For E17K, the “effect of a mutation on the interaction” value was “with no effect”.

Variants of: B1
Conditions: with kat2a_human KAT2A
With E17K the “effect of a mutation on the interaction” value was “with no effect”.

Variants of: B1
Conditions: with kdm6a_human KDM6A
E17K was tested, and the “effect of a mutation on the interaction” value was “with no effect”.

Variants of: B1
Conditions: with vgfr2_human KDR
In the case of E17K, the “effect of a mutation on the interaction” value is reported as “with no effect”.

Variants of: B1
Conditions: with rask_human KRAS
For E17K, the “effect of a mutation on the interaction” value was “with no effect”.

Variants of: B1
Conditions: with lims1_human LIMS1, P48059
E17K was tested, and the “effect of a mutation on the interaction” value was “with no effect”.

Variants of: B1
Conditions: with mp2k7_human MAP2K7, O14733
E17K was tested, and the “effect of a mutation on the interaction” value was “with no effect”.

Variants of: B1
Conditions: with mk14_human MAPK14
E17K was tested, and the “effect of a mutation on the interaction” value was “with no effect”.

Variants of: B1
Conditions: with mk03_human MAPK3, P27361
E17K was tested, and the “effect of a mutation on the interaction” value was “with no effect”.

Variants of: B1
Conditions: with mk06_human MAPK6
In the case of E17K, the “effect of a mutation on the interaction” value is reported as “with no effect”.

Variants of: B1
Conditions: with mlh1_human MLH1, P40692
E17K was tested, and the “effect of a mutation on the interaction” value was “with no effect”.

Variants of: B1
Conditions: with myd88_human MYD88, Q99836
In the case of E17K, the “effect of a mutation on the interaction” value is reported as “with no effect”.

Variants of: B1
Conditions: with nduc2_human NDUFC2
In the case of E17K, the “effect of a mutation on the interaction” value is reported as “with no effect”.

Variants of: B1
Conditions: with nf1_human NF1, P21359
E17K was tested, and the “effect of a mutation on the interaction” value was “with no effect”.

Variants of: B1
Conditions: with nox1_human NOX1, Q9Y5S8
With E17K the “effect of a mutation on the interaction” value was “with no effect”.

Variants of: B1
Conditions: with npm_human NPM1
E17K was tested, and the “effect of a mutation on the interaction” value was “with no effect”.

Variants of: B1
Conditions: with nqo1_human NQO1
With E17K the “effect of a mutation on the interaction” value was “with no effect”.

Variants of: B1
Conditions: with ntrk3_human NTRK3, Q16288
For E17K, the “effect of a mutation on the interaction” value was “with no effect”.

Variants of: B1
Conditions: with pax5_human PAX5, Q02548
E17K was tested, and the “effect of a mutation on the interaction” value was “with no effect”.

Variants of: B1
Conditions: with pax9_human PAX9, P55771
For E17K, the “effect of a mutation on the interaction” value was “with no effect”.

Variants of: B1
Conditions: with pb1_human PBRM1
With E17K the “effect of a mutation on the interaction” value was “with no effect”.

Variants of: B1
Conditions: with pgfrb_human PDGFRB
For E17K, the “effect of a mutation on the interaction” value was “with no effect”.

Variants of: B1
Conditions: with PIK3C2B
E17K was tested, and the “effect of a mutation on the interaction” value was “with no effect”.

Variants of: B1
Conditions: with pk3c3_human PIK3C3
For E17K, the “effect of a mutation on the interaction” value was “with no effect”.

Variants of: B1
Conditions: with pk3cg_human PIK3CG
For E17K, the “effect of a mutation on the interaction” value was “with no effect”.

Variants of: B1
Conditions: with p85a_human PIK3R1
For E17K, the “effect of a mutation on the interaction” value was “with no effect”.

Variants of: B1
Conditions: with p85b_human PIK3R2, O00459
With E17K the “effect of a mutation on the interaction” value was “with no effect”.

Variants of: B1
Conditions: with dpod1_human POLD1, P28340
With E17K the “effect of a mutation on the interaction” value was “with no effect”.

Variants of: B1
Conditions: with 2aaa_human PPP2R1A
E17K was tested, and the “effect of a mutation on the interaction” value was “with no effect”.

Variants of: B1
Conditions: with aakb2_human PRKAB2, O43741
With E17K the “effect of a mutation on the interaction” value was “with no effect”.

Variants of: B1
Conditions: with prss8_human PRSS8, Q16651
With E17K the “effect of a mutation on the interaction” value was “with no effect”.

Variants of: B1
Conditions: with tf65_human RELA
With E17K the “effect of a mutation on the interaction” value was “with no effect”.

Variants of: B1
Conditions: with rit1_human RIT1
For E17K, the “effect of a mutation on the interaction” value was “with no effect”.

Variants of: B1
Conditions: with rnf43_human RNF43, Q68DV7
With E17K the “effect of a mutation on the interaction” value was “with no effect”.

Variants of: B1
Conditions: with ros1_human ROS1, P08922
In the case of E17K, the “effect of a mutation on the interaction” value is reported as “with no effect”.

Variants of: B1
Conditions: with rs15_human RPS15
In the case of E17K, the “effect of a mutation on the interaction” value is reported as “with no effect”.

Variants of: B1
Conditions: with rs2_human RPS2
In the case of E17K, the “effect of a mutation on the interaction” value is reported as “with no effect”.

Variants of: B1
Conditions: with ruvb1_human RUVBL1
In the case of E17K, the “effect of a mutation on the interaction” value is reported as “with no effect”.

Variants of: B1
Conditions: with setbp_human SETBP1, Q9Y6X0
With E17K the “effect of a mutation on the interaction” value was “with no effect”.

Variants of: B1
Conditions: with sf3b1_human SF3B1, O75533
For E17K, the “effect of a mutation on the interaction” value was “with no effect”.

Variants of: B1
Conditions: with xct_human SLC7A11, Q9UPY5
E17K was tested, and the “effect of a mutation on the interaction” value was “with no effect”.

Variants of: B1
Conditions: with smad1_human SMAD1, Q15797
With E17K the “effect of a mutation on the interaction” value was “with no effect”.

Variants of: B1
Conditions: with smad2_human SMAD2, Q15796
E17K was tested, and the “effect of a mutation on the interaction” value was “with no effect”.

Variants of: B1
Conditions: with smad3_human SMAD3, P84022
With E17K the “effect of a mutation on the interaction” value was “with no effect”.

Variants of: B1
Conditions: with smo_human SMO
In the case of E17K, the “effect of a mutation on the interaction” value is reported as “with no effect”.

Variants of: B1
Conditions: with socs1_human SOCS1, O15524
For E17K, the “effect of a mutation on the interaction” value was “with no effect”.

Variants of: B1
Conditions: with sox10_human SOX10, P56693
E17K was tested, and the “effect of a mutation on the interaction” value was “with no effect”.

Variants of: B1
Conditions: with sox2_human SOX2, P48431
With E17K the “effect of a mutation on the interaction” value was “with no effect”.

Variants of: B1
Conditions: with sox3_human SOX3, P41225
For E17K, the “effect of a mutation on the interaction” value was “with no effect”.

Variants of: B1
Conditions: with sox9_human SOX9, P48436
E17K was tested, and the “effect of a mutation on the interaction” value was “with no effect”.
